Target: 5-hydroxytryptamine receptor 7 (Rattus norvegicus, UniProt P32305)

By UniProt entry, the sequences of proteins in these tests, tags left out.
UniProt P32305, whole entry: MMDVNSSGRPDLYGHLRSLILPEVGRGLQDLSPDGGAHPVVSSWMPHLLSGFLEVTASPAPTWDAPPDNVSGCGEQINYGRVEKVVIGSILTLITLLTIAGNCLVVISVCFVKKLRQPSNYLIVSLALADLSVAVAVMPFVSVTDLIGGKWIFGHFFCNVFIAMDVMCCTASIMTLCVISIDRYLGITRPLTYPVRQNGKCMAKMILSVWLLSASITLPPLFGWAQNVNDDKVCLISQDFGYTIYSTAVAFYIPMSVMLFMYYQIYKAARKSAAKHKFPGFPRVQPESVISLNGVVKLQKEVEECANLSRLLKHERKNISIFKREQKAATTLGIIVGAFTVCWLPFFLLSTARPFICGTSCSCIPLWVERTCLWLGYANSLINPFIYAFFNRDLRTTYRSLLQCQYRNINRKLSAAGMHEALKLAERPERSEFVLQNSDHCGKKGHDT

## COc1ccc2[nH]cc(CCN)c2c1 [tryptamine, 5-Methoxy]
  Ki: 0.94 nM
